Among the data in PMC11368737, “Effects of three flavonoids on the metabolism of lenvatinib” (Frontiers in Pharmacology, 2024) are IC50 and Km values, retold here.

The structures appear in SMILES notation.

By IC50 is commonly meant the concentration at which inhibition is half-maximal. By Km is commonly meant the substrate concentration at which the rate is half of its maximum.

Data set [1] deals with lenvatinib metabolism (M1 formation) in RLM. The data set can be described thus: Inhibition of lenvatinib metabolism (M1 formation) by flavonoids in rat liver microsomes. The settings on record: probe lenvatinib 23.5 μM. On the technique in general: Liver microsomes are vesicles of endoplasmic reticulum, rich in cytochrome P450 enzymes.
Data set [2] in a line: Michaelis-Menten kinetics of lenvatinib in RLM. The format is in vitro ADME. Particulars: rat, rat liver microsomes; 2–100 μM lenvatinib, 0.3 mg/mL RLM.

In turn, `O=c1c(O)c(-c2ccc(O)c(O)c2)oc2cc(O)ccc12` [fisetin] showed a half-inhibitory concentration (IC50) at 30 min in data set [1] of 21.8 ± 0.86 µM.

Take `COc1cc2nccc(Oc3ccc(NC(=O)NC4CC4)c(Cl)c3)c2cc1C(N)=O` [lenvatinib, Lenvatinib]: the Km at 30 min in data set [2] was determined as 23.5 ± 2.17 µM.

`O=c1cc(-c2ccc(O)c(O)c2)oc2cc(O)cc(O)c12` [luteolin] displayed a half-maximal inhibitory concentration (IC50) at 30 min in data set [1] of 11.4 ± 0.46 µM.
